Experiment [1] deals with WT KRAS metastatic CRC patients. Put plainly: Kaplan-Meier progression free survival analysis, Merck (PN04) cetuximab clinical trial dataset. The following applies: WT KRAS patients (n=44), control arm (cetuximab+irinotecan). The class given is in vivo, human. The text has this: (§1) The potential of the EPI^S score vs. the TME^S score was examined to predict outcomes in metastatic CRC patients treated with cetuximab in two independent clinical trial datasets (BMS (Khambata-Ford), Merck (PN04)). Higher EPI^S scores were highly associated with longer progression free survival (PFS) in the BMS dataset with all patients regardless of KRAS mutation status) (n=80, Logrank trend P=0.0005, median survival (days): 103.5 (Q4, highest) vs. 53 (Q1, lowest)) and in the subset of WT KRAS patients (n=43, P=0.0062, median survival (days): 135.0 (Q4) vs. 49.5 (Q1)) (FIGS. 8A and 8B).
(§2) The PN04 dataset had 44 WT KRAS CRC samples selected from the control arm (cetuximab+irinotecan) of a Merck prospective clinical trial (MK0646), whereas the public available Khambata-Ford dataset was from a BMS trial including 80 cetuximab-treated CRC patient samples among which 43 had WT KRAS. The Affymetrix data was used to examine the ability of the 10-gene EPI^S(vs. 10-gene TME^S) signature score in predicting progression free survival (PFS) in cetuximab-treated metastatic patients.
Statistical analyses, including Kaplan Meier (KM) survival, Spearman correlation, heatmap, Welch's t Test, Cramer's V Test, and CMS and PDS classifications were performed using GraphPad Prism 10.0.2, SAS 9.4 and R version 4.3. The statistical tests with an α=0.05 were chosen as the significance level. […]

Experiment [2] concerns metastatic CRC patients. Put plainly: Kaplan-Meier progression free survival analysis, BMS (Khambata-Ford) cetuximab clinical trial dataset. The class given is in vivo, human.
Description: as §1, §2
Statistical analyses, including Kaplan Meier (KM) survival, Spearman correlation, heatmap, Welch's t Test, Cramer's V Test, and CMS and PDS classifications were performed using GraphPad Prism 10.0.2, SAS 9.4 and R version 4.3. The statistical tests with an α=0.05 were chosen as the significance level. In addition, for the Welch t test in comparison among multiple subgroups, adjusted p values after adjustments for multi-comparisons by Holm-Bonferroni method were indicated. All tests were two-sided unless indicated otherwise.

This note sets out measurements from patent publication US20250305059A1, “[…] COLORECTAL CANCER” (UNIVERSITY OF SOUTH FLORIDA, priority 2024, published 2025).

Turning to cetuximab, the “median survival (progression free survival)” value in experiment [1] (EPI^S score quartile Q1) was 75.5 days; in experiment [1] (EPI^S score quartile Q4), 208.0 days; in experiment [2] (all patients regardless of KRAS mutation status (n=80), EPI^S score quartile Q1, lowest), 53 days; in experiment [2] (all patients regardless of KRAS mutation status (n=80), EPI^S score quartile Q4, highest), 103.5 days; in experiment [2] (subset of WT KRAS patients (n=43), EPI^S score quartile Q1), 49.5 days; in experiment [2] (subset of WT KRAS patients (n=43), EPI^S score quartile Q4), 135.0 days.
